The chains behind the UniProt entries cited, without tags or fusion partners. Residues count along the entry.
UniProt P00760, 24-246 limits assumed: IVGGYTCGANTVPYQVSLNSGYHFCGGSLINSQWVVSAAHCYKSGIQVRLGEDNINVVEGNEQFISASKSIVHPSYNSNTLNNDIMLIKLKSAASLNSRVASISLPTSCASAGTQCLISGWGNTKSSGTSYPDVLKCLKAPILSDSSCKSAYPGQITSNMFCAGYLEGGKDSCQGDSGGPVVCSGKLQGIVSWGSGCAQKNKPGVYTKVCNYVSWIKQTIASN

According to patent US8778876B2, “Small-molecule inhibitors of Dengue and West Nile virus proteases” (The Board of Regents of the University of Texas System, priority 2011, dated 2014):

Target: Bovine pancreatic trypsin (Bos taurus, UniProt P00760)
Conditions: second series analogs

## Cc1cc(O)c2c(c1)C(=O)c1cc(O)cc(O)c1C2=O
read-out: Trypsin Ki2
  Ki: 5 µM
  Trypsin Mechanism: Uncompetitive
